## scFv variants of Ab-14 (light chain) against a SARS-CoV-2 spike peptide

From the AlphaSeq antibody data of Engelhart et al. 2022 (doi:10.1038/s41597-022-01779-4), copy in the FLAb collection.

All variants were tested on one target, the spike HR2 peptide PDVDLGDISGINAS (SARS-CoV-2).

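Phage display of a naive human antibody library on the peptide gave the parent. In library AAYL50, one, two or three CDR residues were substituted; doubles and triples were drawn at random. Affinity was read by AlphaSeq, a pooled yeast mating assay with surface-displayed partners. Pairs that bind mate more often; barcode pairs of the diploids are counted by sequencing. A regression on co-assayed BCL2-family reference pairs converts the normalised counts of each replicate to an apparent Kd. There are three technical replicates.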

Parent: Ab-14, a human scFv built as VH, the linker GGGGSGGGGSGGGGS, VL. Only the CDRs of the light chain vary.
VH: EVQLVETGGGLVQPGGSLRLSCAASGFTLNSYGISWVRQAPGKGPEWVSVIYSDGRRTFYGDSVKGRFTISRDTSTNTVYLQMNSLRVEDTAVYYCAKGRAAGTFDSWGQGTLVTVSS
VL: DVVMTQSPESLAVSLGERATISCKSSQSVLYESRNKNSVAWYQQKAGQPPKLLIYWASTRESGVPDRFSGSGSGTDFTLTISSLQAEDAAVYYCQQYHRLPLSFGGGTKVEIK

Each variant is given by its three light chain CDRs, as the data file delimits them; those of the parent are KSSQSVLYESRNKNSVA, WASTRES, QQYHRLPLS.
Numbers give log10(Kd / nM), so 0 is 1 nM and 3 is 1 µM. Smaller is tighter.
The mean shown is taken over the replicates in which the pair was detected.
"not detected" marks a missing value. The strain was present, yet no cells mated with the target were sequenced in any replicate, which points to weak or no binding.
As a blank, each scFv also met three strains without target: over library AAYL50, 18% of these pairings were detected, typically at 4.19 and seldom below 2.99. Also given: how often the same scFv was detected with the empty control strains.
For reference, the parent read 0.65 as the reference entry and 1.68 as a member of this library.

CDR-L1 | CDR-L2 | CDR-L3 | log10 Kd (nM), mean | seen in | empty controls
KSSQSVLYEVRNKNSVA | WASTRTS | QQYHRLPLS | 2.21 | 2/3 | 0/9
KSSQSDLYESRNGNSVA | WASTRES | QQQHRLPLS | not detected | 0/3 | 2/9
KSSQSVLYESRNKNSVA | WASWRES | QQYQRLPLL | 3.90 | 2/3 | 0/9
KSAQSVLYESRNKNSVF | WASTRES | FQYHRLPLS | 5.18 | 1/3 | 2/9
KSSQSYLYKSRNKNSVA | WASTRES | QQYHRLPLS | 3.24 | 3/3 | 2/9
PSSQSVLYESRNQNSVA | WASTRES | QQYHRLPLS | 3.77 | 1/3 | 4/9
KSSQSCLYESRNKNGVA | WASTRES | QQYHRLPLS | 1.73 | 3/3 | 3/9
KSSSSVLYESRNKNSVA | SASTRES | QQYHRSPLS | 0.65 | 3/3 | 0/9
MSSQSKLYESRNKNSVA | WPSTRES | QQYHRLPLS | not detected | 0/3 | 0/9
KSSQSVLYESRNKNSVA | WASLRNS | QQYHRLPSS | 0.88 | 3/3 | 1/9
TSSQSVLYESRNKNSMA | WASTRES | QQWHRLPLS | 3.07 | 1/3 | 4/9
KSSDSVLYESRNKNSVA | WASTRES | QQYKRSPLS | not detected | 0/3 | 3/9
KSCQSVLYESRNKNSSA | WASTRES | QQYHRKPLS | 3.69 | 2/3 | 2/9
KSSQSVLYESRNKNSAA | WAITRES | DQYHRLPLS | not detected | 0/3 | 3/9
KSSQSVIYESLNKNSVA | WASTRES | IQYHRLPLS | 1.37 | 3/3 | 3/9
KSSQSVLYESRNKNSVA | HASTREI | QQYHRGPLS | 3.80 | 1/3 | 0/9
KSSQSVLYSSRNKMSVA | WASTRES | QQYHPLPLS | not detected | 0/3 | 2/9
KSSQSVLYESRNKNSGA | WKSTRES | QTYHRLPLS | not detected | 0/3 | 0/9
KSSQSVLYESRNKFSVA | WASTRES | QQYHRRFLS | not detected | 0/3 | 1/9
KSTQHVLYESRNKNSVA | WASTRES | QQYHRLPES | 4.12 | 1/3 | 2/9
KSSQSVLYESRNKNSVA | WTSTRES | QQYHMQPLS | 3.91 | 1/3 | 1/9
KSSQSVLNCSRNKNSVA | WASTRES | QQYHRLPKS | 1.56 | 3/3 | 5/9

The remaining entries, values ahead:

log10 Kd (nM), mean | seen in | empty controls | CDR-L1 | CDR-L2 | CDR-L3
4.16 | 1/3 | 1/9 | KSSQSVLYESINKNSVA | WASTHES | QQYHRCPLS
4.15 | 2/3 | 5/9 | ISSQSVLYESRNKNSVA | WASTMES | QQYSRLPLS
not detected | 0/3 | 1/9 | KSSQSVLYESRVKNSAA | WASTREW | QQYHRLPLS
1.47 | 3/3 | 1/9 | KSSQSPLYESRNKNSVA | WASTRES | QQMHRHPLS
1.46 | 3/3 | 1/9 | KSSWSVLYEKRNKNSVA | WGSTRES | QQYHRLPLS
not detected | 0/3 | 0/9 | KSSQSVLYESRNKPSVA | WASTRES | AQYHRLPES
not detected | 0/3 | 0/9 | KSSQSVLYESRNKNSGM | WASHRES | QQYHRLPLS
not detected | 0/3 | 1/9 | KSSQSVLYESQNKDSVY | WASTRES | QQYHRLPLS
2.87 | 3/3 | 1/9 | KSSQSVNYESRTKNSVA | WASTRES | QQYHFLPLS
5.36 | 1/3 | 3/9 | KSSQSVLYESRNKNWHA | WASTMES | QQYHRLPLS
2.80 | 2/3 | 2/9 | KSSQSVSYESRNKAKVA | WASTRES | QQYHRLPLS
3.34 | 3/3 | 1/9 | ASSQSVLYISRNKNSVA | WASTRES | QQYVRLPLS
3.75 | 3/3 | 4/9 | KSSQSVLYESRNYNSCA | WASTRES | QQYHTLPLS
0.57 | 3/3 | 2/9 | KSSQSVLYESRNKNSVA | HASTRES | QQYHRLPCE
5.10 | 1/3 | 2/9 | KSSQSVLGESRNKNSVA | WLSTRNS | QQYHRLPLS
not detected | 0/3 | 0/9 | KSSQSVLYESCNKNEVA | WASTRES | QTYHRLPLS
5.46 | 2/3 | 2/9 | KSSQSVLYESRNKNSDW | WASTRES | QQYHALPLS
1.65 | 3/3 | 3/9 | KSSQSVLYESPTKNSVA | WASTRES | QMYHRLPLS
not detected | 0/3 | 0/9 | KSSQSVLYESRNKNSVA | WASTRES | QQYHFLPIG
not detected | 0/3 | 3/9 | ESSQSVLYEMRNKNSVA | WASTRES | QFYHRLPLS
1.35 | 3/3 | 1/9 | KSSQSVLYKSRMKNSVA | WASIRES | QQYHRLPLS
3.46 | 2/3 | 1/9 | MSSQSVLYVTRNKNSVA | WASTRES | QQYHRLPLS
1.63 | 3/3 | 5/9 | KSSQSALYESRNKNSVA | KASTRES | QQYHLLPLS

Top 7 of the variants detected in all replicates, tightest first:

CDR-L1 | CDR-L2 | CDR-L3 | log10 Kd (nM), mean | seen in | empty controls
KSSQSVLYESRNKNSVA | HASTRES | QQYHRLPCE | 0.57 | 3/3 | 2/9
KSSSSVLYESRNKNSVA | SASTRES | QQYHRSPLS | 0.65 | 3/3 | 0/9
KSSQSVLYESRNKNSVA | WASLRNS | QQYHRLPSS | 0.88 | 3/3 | 1/9
KSSQSVLYKSRMKNSVA | WASIRES | QQYHRLPLS | 1.35 | 3/3 | 1/9
KSSQSVIYESLNKNSVA | WASTRES | IQYHRLPLS | 1.37 | 3/3 | 3/9
KSSWSVLYEKRNKNSVA | WGSTRES | QQYHRLPLS | 1.46 | 3/3 | 1/9
KSSQSPLYESRNKNSVA | WASTRES | QQMHRHPLS | 1.47 | 3/3 | 1/9